Reference: PubChem BioAssay AID1469 (National Center for Advancing Translational Sciences (NCATS), 2008)
This is a selection; strong and weak results do not stand in their true shares. Some tests of the compounds listed are not included; inactive here does not mean inactive elsewhere. The source made the active and inactive calls. Calls come from the whole dose curve; as a rule, active = well fitted inhibition curve with a large enough effect; inconclusive = small, poorly fitted or top-dose-only effect, or effect the other way; inactive = flat fitted curve, though single readings scatter.

Sequences of proteins named here, by UniProt entry; tags and fusion partners are left off.
UniProt P10828, whole entry: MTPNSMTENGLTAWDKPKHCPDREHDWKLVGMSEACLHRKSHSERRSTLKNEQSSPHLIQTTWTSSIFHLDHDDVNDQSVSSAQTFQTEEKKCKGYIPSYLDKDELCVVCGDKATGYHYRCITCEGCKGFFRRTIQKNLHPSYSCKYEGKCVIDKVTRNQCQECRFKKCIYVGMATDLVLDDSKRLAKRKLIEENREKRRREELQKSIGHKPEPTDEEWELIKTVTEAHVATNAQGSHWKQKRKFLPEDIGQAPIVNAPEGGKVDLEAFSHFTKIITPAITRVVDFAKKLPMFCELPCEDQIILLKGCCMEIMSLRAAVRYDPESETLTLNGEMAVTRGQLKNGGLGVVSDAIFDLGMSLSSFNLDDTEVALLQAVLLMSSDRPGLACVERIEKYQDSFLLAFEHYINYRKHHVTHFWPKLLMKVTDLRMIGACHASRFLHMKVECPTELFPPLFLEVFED

molecular target: Thyroid hormone receptor beta (Homo sapiens) (UniProt P10828); experiment: qHTS for Inhibitors of the Interaction of Thyroid Hormone Receptor and Steroid Receptor Coregulator 2; conditions: TRbeta-SRC2 peptide binding, fluorescence polarization, receptor liganded with 1 µM T3; at 106 µM (top of the series);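 note: plate controls were bound peptide for no effect and peptide without receptor for full effect; nearly all actives have a fitted effect of over 50% in size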
Source text: NIH Molecular Libraries Probe Production Network [MLPCN]
NIH Chemical Genomics Center [NCGC]
Assay Provider: R. Kip Guy, St. Jude Children's Research Hospital
Thyroid receptor (TR) regulates many homeostatic processes including basal metabolism, cardiovascular function, body weight, and lipid trafficking. TR modulators are potential therapeutics for obesity and hyperlipidemias but current thyroid analogs have undesirable side effects, particularly cardiac stimulation. To identify inhibitors that specifically prevent the interaction of TR with the steroid receptor coregulator 2 (SRC2), a fluorescence polarization assay was screened. This assay detects interaction of the ligand-binding domain of human TRb with a Texas Red labeled SRC2 peptide, corresponding to a 20 amino acid region of the nuclear receptor interaction domain (Arnold et al., 2006). Small molecule inhibitors that block the interaction of TR and SRC2 are detected by a decrease in fluorescence polarization.
Arnold, L. A.; Estebanez-Perpina, E.; Togashi, M.; Shelat, A.; Ocasio, C. A.; McReynolds, A. C.; Nguyen, P.; Baxter, J. D.; Fletterick, R. J.; Webb, P.; Guy, R. K. A high-throughput screening method to identify small molecule inhibitors of thyroid hormone receptor coactivator binding. Sci STKE 2006, p 13.
NCGC Assay Protocol Summary:
For screening, 5 uL/well 0.6 uM TRb and 20 nM SRC2 Texas Red in protein buffer (20mM Tris hydrochloride, 100mM NaCl, 10% glycerol, 1mM EDTA, 0.01% NP-40, 1mM DTT, 1uM T3 and 5% DMSO) was dispensed into black solid 1536-well plates (Grenier) using a solenoid-based dispenser. Following transfer of 23 nL compound or DMSO vehicle by a pin tool, the plates were centrifuged 15 s at 1000 RPM and incubated 5 hr at ambient temperature. […] Data were normalized to unbound (all components except TRb) and bound SRC2 Texas Red controls. In this assay, we provide % activity data for each concentration as well as potencies for the active compounds.
Keywords: NIH Roadmap, MLPCN, MLI, MLSMR, qHTS, NCGC, qHTS, thyroid hormone receptor, steroid receptor coactivator, fluorescence polarization

**Q.** Which activity change, negative = inhibition does the source give for `CCCCOc1ccccc1C(=O)NCC1(N(C)C)CCCCC1` here?
**A.** Its activity change, negative = inhibition is inactive: 2.21%.

**Q.** For `CN(C)C1CCCC1OC(=O)C(O)(c1ccccc1)c1ccccc1` (stereo not given), which activity change, negative = inhibition is on record?
**A.** Its activity change, negative = inhibition is inactive: 10.3%.

**Q.** For `Cc1ccccc1C(=O)NCC1(N2CCCCC2)CCCCC1`, which activity change, negative = inhibition is on record?
**A.** Its activity change, negative = inhibition is inactive: 1.37%.

**Q.** `CN(C)C1(CNC(=O)c2ccccc2[N+](=O)[O-])CCCCC1` was tested. Which activity change, negative = inhibition did it give?
**A.** The activity change, negative = inhibition was inactive: 1.09%.

**Q.** For `CCN1CCCC(OC(=O)C2(O)c3ccccc3C=Cc3ccccc32)C1` (stereo not given), which activity change, negative = inhibition is on record?
**A.** Its activity change, negative = inhibition is inactive: -1.88%.

**Q.** `CCOc1cccc(C(=O)NCC2(N(C)C)CCCCC2)c1` was tested. Which activity change, negative = inhibition did it give?
**A.** Its activity change, negative = inhibition is inactive: -5.99%.

**Q.** How did the activity change, negative = inhibition turn out when `O=C(NCC1(N2CCCCC2)CCCCC1)c1cc([N+](=O)[O-])ccc1Cl` was run?
**A.** Its activity change, negative = inhibition is inactive: -1.12%.

**Q.** Which activity change, negative = inhibition does the source give for `CN(C)C1(CNC(=O)c2ccccc2F)CCCCC1` here?
**A.** The activity change, negative = inhibition was inactive: -7.23%.

**Q.** Which activity change, negative = inhibition does the source give for `CCN(CC)CC(C)C(C)OC(=O)C(O)(c1ccccc1)c1ccccc1` (stereo not given) here?
**A.** Its activity change, negative = inhibition is inactive: 3.16%.

**Q.** For `CN(C)C1(CNC(=O)c2cccc(Cl)c2)CCCCC1`, which activity change, negative = inhibition is on record?
**A.** Its activity change, negative = inhibition is inactive: -7.65%.

**Q.** For `CC(C)COc1ccc(C(=O)NCC2(N(C)C)CCCCC2)cc1`, which activity change, negative = inhibition is on record?
**A.** Its activity change, negative = inhibition is inactive: -5.58%.

**Q.** Which activity change, negative = inhibition does the source give for `O=C(OC1CN2CCC1CC2)C(CO)(c1ccccc1)c1ccccc1` (stereo not given) here?
**A.** Its activity change, negative = inhibition is inactive: -10.5%.

**Q.** For `COc1cccc(C(=O)NCC2(N3CCOCC3)CCCCC2)c1`, which activity change, negative = inhibition is on record?
**A.** Its activity change, negative = inhibition is inactive: -7.04%.

**Q.** How did the activity change, negative = inhibition turn out when `CN(C)c1cccc(C(=O)NCC2(N(C)C)CCCCC2)c1` was run?
**A.** Its activity change, negative = inhibition is inactive: -9.51%.

**Q.** How did the activity change, negative = inhibition turn out when `CC(C)Oc1ccc(C(=O)NCC2(N(C)C)CCCCC2)cc1` was run?
**A.** Its activity change, negative = inhibition is inactive: 2.07%.

**Q.** For `COc1ccc(Br)c(C(=O)NCC2(N3CCCCC3)CCCCC2)c1`, which activity change, negative = inhibition is on record?
**A.** Its activity change, negative = inhibition is inactive: -1.65%.

**Q.** `Cc1cccc(C(=O)NCC2(N(C)C)CCCCC2)c1` was tested. Which activity change, negative = inhibition did it give?
**A.** Its activity change, negative = inhibition is inactive: 3.3%.

**Q.** With `COc1cc(C(=O)NCC2(N(C)C)CCCCC2)cc(OC)c1OC` as the compound, how does the activity change, negative = inhibition read?
**A.** Its activity change, negative = inhibition is inactive: -0.297%.

**Q.** `COc1ccc(C(=O)NCC2(N(C)C)CCCCC2)cc1Cl` was tested. Which activity change, negative = inhibition did it give?
**A.** Its activity change, negative = inhibition is inactive: -3.15%.

**Q.** With `COc1cccc(C(=O)NCC2(N3CCCCC3)CCCCC2)c1` as the compound, how does the activity change, negative = inhibition read?
**A.** The activity change, negative = inhibition was inactive: 1.63%.
